Consider one compound from PMC9865188 (Pharmaceutics, 2023).

Data set [1] in a line: physchem. As to conditions: pH 7.4, aqueous buffer, thermodynamic from solid.
A short description of data set [2]: physchem.

In general, solubility refers to the dissolved amount per volume that the medium holds. Read a low solubility as a poorly soluble substance.

Values after ≈ are worked out from the molar mass of the structure shown.

Turning to `O[C@@H](COc1cccc2ncccc12)CN1CCN([C@@H]2c3ccccc3[C@@H]3[C@H](c4ccccc42)C3(F)F)CC1` [zosuquidar], the concentration in solution in “physchem [1]” (solubility) came to 2.08 ± 0.3 µM (≈ 1.1 µg/mL). Moreover, the pKa3 (DMSO cosolvent, extrapolated to 0% DMSO (Yasuda–Shedlovsky)) was 7.9. The compound also gave a pKa2 (pure water, 25 °C, 0.15 M potassium chloride) of 4.8. Moreover, the pKa in “physchem [2]” (pKa1, pure water, 25 °C, 0.15 M potassium chloride) was 1.5 ± 0.4; in “physchem [2]” (pKa2, DMSO cosolvent, extrapolated to 0% DMSO (Yasuda–Shedlovsky)) it was 4.83 ± 0.03; in “physchem [2]” (pKa2, pure water, 25 °C, 0.15 M potassium chloride), 4.78 ± 0.03; in the data set “physchem [2]” (pKa3, DMSO cosolvent, extrapolated to 0% DMSO (Yasuda–Shedlovsky)), 7.94 ± 0.01.
